Target: human LPAR1 (Homo sapiens, UniProt Q92633)
Test: Arrestin assay (Arrestin Reporter EDG2-bla U2OS), inhibition of LPA-stimulated signal
Conditions: read-out: Arrestin Reporter EDG2-bla U2OS Human Merged IC50; TangoEDG2-bla U2OS cells expressing human LPAR1; 0.25 μM LPA
Protocol: The inhibitory activity of compounds 15, 62, 77, 84 and 169 against LPAR1 was measured using an Arrestin assay in U2OS cells expressing human LPAR1.
FreeStyle media was warmed in a 37° C. water bath. Cryo-preserved vial(s) of TangoEDG2-bla U2OS cells were rapidly thawed in a 37° C. water bath. The thawed cells were added to FreeStyle media and cells were pelleted at 300×g for 5 minutes. The supernatant was aspirated, and cells were resuspended in FreeStyle media. Cell density was adjusted to 0.25×10^6 cells/mL. Cells (1×10^4 in 40 μL) were added to each well of Greiner 384 well black cell plate(s). Cell plate(s) were placed in a humidified 37° C./5% CO2 incubator for 18-20 hours. Dilutions of test compound were prepared at 6× final concentration; 12-point, 3-fold dilutions using HH Buffer (1×HBSS plus 20 mM HEPES). The 6× test compound was then added to the cell plate(s) at 10 μL/well. […] Plate(s) were read on an Envision Plate Reader (Perkin Elmer) to read fluorescence; excitation at 409 nm with emission at 460 nm and 530 nm. […]
Additional compounds of the present disclosure were synthesized in a manner similar to the compounds described above and understood by a person of ordinary skill in the art. The inhibitory activity of the compounds of the present disclosure against LPAR1 was measured using the above-referenced Arrestin Assay protocol.

Protein sequences, listed by entry. Tags and fused reporters are not part of them.
UniProt Q92633, whole entry: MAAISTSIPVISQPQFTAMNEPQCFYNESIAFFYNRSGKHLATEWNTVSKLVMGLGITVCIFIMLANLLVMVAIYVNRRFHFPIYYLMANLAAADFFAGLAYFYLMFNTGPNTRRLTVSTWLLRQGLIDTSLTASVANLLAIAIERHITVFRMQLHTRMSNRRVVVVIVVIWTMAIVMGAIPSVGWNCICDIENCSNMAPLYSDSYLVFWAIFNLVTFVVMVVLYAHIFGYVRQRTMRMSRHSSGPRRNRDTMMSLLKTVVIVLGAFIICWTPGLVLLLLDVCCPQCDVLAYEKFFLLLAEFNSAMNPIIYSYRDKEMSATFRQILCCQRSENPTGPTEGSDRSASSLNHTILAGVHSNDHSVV

- IC50: 55.1 nM
Structure (SMILES): CO[C@H]1CC[C@@H]([C@@H](CN2CCC(C(=O)Nc3ccc(Cl)cc3OC(F)F)(n3nccc3C(C)C)CC2)C(=O)O)CC1 (single isomer, unassigned)

Reference: US20260102383A1, “LPAR1 Inhibitors” (AbbVie Inc., priority 2024, published 2026)
